PMC9992173, “Mapping of the extracellular RBP4 ligand binding domain on the RBPR2 receptor for Vitamin A transport” (Frontiers in Cell and Developmental Biology, 2023)

Experiments:
Conditions in all cases: scale: % decreased activity compared to WT-RBPR2
[1] = target: V5-tagged RBPR2 Ser294Ala mutant (mouse) (UniProt Q9DBN1)
[2] = target: V5-tagged RBPR2 Tyr295Pro mutant (mouse) (UniProt Q9DBN1)
[3] = target: V5-tagged RBPR2 Leu296Ser mutant (mouse) (UniProt Q9DBN1)

Measured: uptake of extracellular [3H]ROL-RBP4 at 60 min by stable NIH3T3/LRAT cells, liquid scintillation counting

purified T7 tagged human RBP4 (from UniProt P02753 19-194) (ligand)
< 81: [1] | [2] | [3]
